Test results taken from patent US6133307A, “Certain benzofuranyl-N-[pyrrolidin-1-YL]-N-methyl-acetamide derivatives useful as opioid agonists” (dated 2000).

Protein sequences, listed by entry. Tags and fused reporters are not part of them. Residues count along the entry.
UniProt G1SJ19, 1-383: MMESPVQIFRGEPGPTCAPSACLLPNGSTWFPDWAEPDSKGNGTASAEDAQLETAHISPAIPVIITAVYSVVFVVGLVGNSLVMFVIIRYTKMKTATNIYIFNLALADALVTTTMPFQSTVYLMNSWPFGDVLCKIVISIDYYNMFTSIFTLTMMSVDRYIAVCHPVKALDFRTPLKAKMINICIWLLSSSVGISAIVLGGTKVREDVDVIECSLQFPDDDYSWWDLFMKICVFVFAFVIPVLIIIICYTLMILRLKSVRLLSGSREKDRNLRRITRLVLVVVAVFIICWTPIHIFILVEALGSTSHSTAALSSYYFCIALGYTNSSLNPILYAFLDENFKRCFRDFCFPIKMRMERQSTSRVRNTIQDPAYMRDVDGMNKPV

Target: K-receptor (Oryctolagus cuniculus, UniProt G1SJ19)
Experiment: Rabbit vas deferens assay
Conditions: for relative potency: EC50 of the compound/EC50 of [5R-(5α,7α,8β)]-N-methyl-N-[7-(1-pyrrolidinyl)-1-oxaspiro-[4,5]dec-8-yl]-4-benzofuranacetamide, monohydrochloride: ratio to the parent kappa agonist

## CN(C(=O)Cc1coc2ccccc12)[C@H](CN1CC[C@H](O)C1)c1ccccc1
  relative potency: EC50 of the compound/EC50 of [5R-(5α,7α,8β)]-N-methyl-N-[7-(1-pyrrolidinyl)-1-oxaspiro-[4,5]dec-8-yl]-4-benzofuranacetamide, monohydrochloride: 0.056

## CN(C(=O)Cc1cccc2occc12)[C@H](CN1CCCC1)c1ccccc1
  relative potency: EC50 of the compound/EC50 of [5R-(5α,7α,8β)]-N-methyl-N-[7-(1-pyrrolidinyl)-1-oxaspiro-[4,5]dec-8-yl]-4-benzofuranacetamide, monohydrochloride: 6.92

## CN(C(=O)Cc1coc2ccccc12)[C@H](CN1CCCC1)c1ccccc1
  relative potency: EC50 of the compound/EC50 of [5R-(5α,7α,8β)]-N-methyl-N-[7-(1-pyrrolidinyl)-1-oxaspiro-[4,5]dec-8-yl]-4-benzofuranacetamide, monohydrochloride: 1.18

## CN(C(=O)C1C(c2ccccc2)=C1c1ccccc1)C1CCC2(CCCO2)CC1N1CCCC1 (centres unmarked)
read-out: agonist functional activity EC50 (LVD)
  EC50: 12 nM

## CO[C@H]1CCN(C[C@H](c2ccccc2)N(C)C(=O)Cc2cccc3occc23)C1
  relative potency: EC50 of the compound/EC50 of [5R-(5α,7α,8β)]-N-methyl-N-[7-(1-pyrrolidinyl)-1-oxaspiro-[4,5]dec-8-yl]-4-benzofuranacetamide, monohydrochloride: 1.17

## CN(C(=O)Cc1ccc(S(C)(=O)=O)cc1)[C@H](CN1CCCC1)c1ccccc1
  relative potency: EC50 of the compound/EC50 of [5R-(5α,7α,8β)]-N-methyl-N-[7-(1-pyrrolidinyl)-1-oxaspiro-[4,5]dec-8-yl]-4-benzofuranacetamide, monohydrochloride: 1.38

## CN(C(=O)C1C(c2ccccc2)=C1c1ccccc1)[C@H](CN1CC[C@H](O)C1)c1ccccc1
  relative potency: EC50 of the compound/EC50 of [5R-(5α,7α,8β)]-N-methyl-N-[7-(1-pyrrolidinyl)-1-oxaspiro-[4,5]dec-8-yl]-4-benzofuranacetamide, monohydrochloride: 1.5

## CN(C(=O)Cc1cccc2occc12)[C@H](CN1CC[C@H](O)C1)c1ccccc1
  relative potency: EC50 of the compound/EC50 of [5R-(5α,7α,8β)]-N-methyl-N-[7-(1-pyrrolidinyl)-1-oxaspiro-[4,5]dec-8-yl]-4-benzofuranacetamide, monohydrochloride: 0.28

## CN(C(=O)C1C(c2ccccc2)=C1c1ccccc1)[C@H](CN1CCCC1)c1ccccc1
  relative potency: EC50 of the compound/EC50 of [5R-(5α,7α,8β)]-N-methyl-N-[7-(1-pyrrolidinyl)-1-oxaspiro-[4,5]dec-8-yl]-4-benzofuranacetamide, monohydrochloride: 1.43

## CN(C(=O)Cc1ccc(S(C)(=O)=O)cc1)[C@H](CN1CC[C@H](O)C1)c1ccccc1
  relative potency: EC50 of the compound/EC50 of [5R-(5α,7α,8β)]-N-methyl-N-[7-(1-pyrrolidinyl)-1-oxaspiro-[4,5]dec-8-yl]-4-benzofuranacetamide, monohydrochloride: 0.04

## CN(C(=O)Cc1ccccc1)[C@H](CN1CC[C@H](O)C1)c1ccccc1
  relative potency: EC50 of the compound/EC50 of [5R-(5α,7α,8β)]-N-methyl-N-[7-(1-pyrrolidinyl)-1-oxaspiro-[4,5]dec-8-yl]-4-benzofuranacetamide, monohydrochloride: 1.6
